Assay [1] concerns the target menin/MLL (terbium chelate-labeled menin, FITC-MBM1 peptide) (Homo sapiens, UniProt O00255, T541A). Briefly: Menin/MLL homogenous time-resolved fluorescence (HTRF) assay. The following applies: read-out: HTRF-30 min incubation IC50. As to the method:
1) Menin/MLL Homogenous Time-Resolved Fluorescence (HTRF) Assay
To an untreated, white 384-well microtiter plate was added 40 nL 200× test compound in DMSO and 4 μL 2× terbium chelate-labeled menin (vide infra for preparation) in assay buffer (40 mM Tris HCl, pH 7.5, 50 mM NaCl. 1 mM DTT (dithiothreitol) and 0.05% Pluronic F-127). After incubation of test compound and terbium chelate-labeled menin for 30 min at ambient temperature, 4 μL 2×FITC-MBM1 peptide (FITC-β-alanine-SARWRFPARPGT-NH2) (“FITC” means fluorescein isothiocyanate) in assay buffer was added, the microtiter plate centrifuged at 1000 rpm for 1 min and the assay mixtures incubated for 15 min at ambient temperature. The relative amount of menin FITC-MBM1 complex present in an assay mixture is determined by measuring the homogenous time-resolved fluorescence (HTRF) of the terbium/FITC donor/acceptor fluorphore pair using an EnVision microplate reader (ex. 337 nm/terbium em. 490 nm/FITC em. 520 nm) at ambient temperature. The degree of fluorescence resonance energy transfer (the HTRF value) is expressed as the ratio of the fluorescence emission intensities of the FITC and terbium fluorophores (F^em520 nm/F^em490 nm). The final concentrations of reagents in the binding assay are […] terbium chelate-labeled menin, 75 nM FITC-MBM1 peptide and 0.5% DMSO in assay buffer. Dose-response titrations of test compounds are conducted using an 11 point, four-fold serial dilution scheme, starting typically at 10 μM.
Compound potencies were determined by first calculating % inhibition at each compound concentration according to equation 1:
% inhibition=((HC−LC)−(HTRF^compound−LC))/(HC−LC))*100 (Eqn 1)
Where LC and HC are the HTRF values of the assay in the presence or absence of a saturating concentration of a compound that competes with FITC-MBM1 for binding to menin, and HTRF^compound is the measured HTRF value in the presence of the test compound. HC and LC HTRF values represent an average of at least 10 replicates per plate.
% inhibition=Bottom+(Top−Bottom)/(1+10^((log/C50−log[cmpd])*h)) (Eqn 2)
Where Bottom and Top are the lower and upper asymptotes of the dose-response curve, respectively, IC50 is the concentration of compound that yields 50% inhibition of signal and h is the Hill coefficient.
Preparation of Terbium cryptate labeling of Menin: Menin (a.a 1-610-6xhis tag, 2.3 mg/mL in 20 mM Hepes (2-[4-(2-Hydroxyethyl)-1-piperazinyl]ethane sulfonic acid), 80 mM NaCl, 5 mM DTT (Dithiothreitol), pH 7.5) was labeled with terbium cryptate as follows. 200 μg of Menin was buffer exchanged into 1×Hepes buffer. 6.67 μM Menin was incubated with 8-fold molar excess NHS (N-hydroxysuccinimide)-terbium cryptate for 40 minutes at room temperature. Half of the labeled protein was purified away from free label by running the reaction over a NAP5 column with elution buffer (0.1M Hepes, pH 7+0.1% BSA (bovine serum albumin)). The other half was eluted with 0.1 M phosphate buffered saline (PBS), pH7. 400 μl of eluent was collected for each, aliquoted and frozen at −80° C. The final concentration of terbium-labeled Menin protein was 115 μg/mL in Hepes buffer and 85 μg/mL in PBS buffer, respectively.
In general terms: Time-resolved FRET reads energy transfer from a long-lived donor to a nearby acceptor.

Amino acid sequences for entries named in this document (tags omitted). Chains listed by the source or under a name are the forms on record and can include a tag or linker. Residues count along the entry.
UniProt O00255, 1-610 with tags or gaps T541A: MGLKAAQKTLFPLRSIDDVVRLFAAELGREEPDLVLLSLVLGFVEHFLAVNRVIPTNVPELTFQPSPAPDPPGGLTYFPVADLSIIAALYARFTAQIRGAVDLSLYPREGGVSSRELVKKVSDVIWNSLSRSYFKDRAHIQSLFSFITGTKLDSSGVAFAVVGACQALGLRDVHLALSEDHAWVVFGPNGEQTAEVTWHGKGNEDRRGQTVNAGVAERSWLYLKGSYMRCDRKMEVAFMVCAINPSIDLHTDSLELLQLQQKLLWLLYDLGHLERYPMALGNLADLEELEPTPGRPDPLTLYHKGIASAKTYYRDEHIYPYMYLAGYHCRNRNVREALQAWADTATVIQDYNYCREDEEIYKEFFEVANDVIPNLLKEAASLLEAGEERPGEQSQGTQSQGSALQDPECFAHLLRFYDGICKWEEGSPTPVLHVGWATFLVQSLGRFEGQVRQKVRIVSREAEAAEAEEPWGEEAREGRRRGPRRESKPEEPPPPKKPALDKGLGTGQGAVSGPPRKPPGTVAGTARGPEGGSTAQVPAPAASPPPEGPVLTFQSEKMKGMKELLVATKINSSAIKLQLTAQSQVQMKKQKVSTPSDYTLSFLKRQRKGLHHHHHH

In a further assay the test system is MEIS1 mRNA expression. Briefly: MEIS1 mRNA expression assay (Quantigene Singleplex) in MOLM14 cells. The following applies: read-out: MEIS1 IC50, 48 hours incubation. As to the method: 2b) MEIS1 mRNA Expression Assay
MEIS1 mRNA expression upon treatment of compound was examined by Quantigene Singleplex assay (Thermo Fisher Scientific). This technology allows for direct quantification of mRNA targets using probes hybridizing to defined target sequences of interest and the signal is detected using a Multimode plate reader Envision (PerkinElmer). The MOLM14 cell line was used for this experiment. Cells were plated in 96-well plates at 3,750 cells/well in the presence of increasing concentrations of compounds. After incubation of 48 hours with compounds, cells were lysed in lysis buffer and incubated for 45 minutes at 55° C. Cell lysates were mixed with human MEIS specific capture probe or human RPL28 (Ribosomal Protein L28) specific probe as a normalization control, as well as blocking probes. Cell lysates were then transferred to the custom assay hybridization plate (Thermo Fisher Scientific) and incubated for 18 to 22 hours at 55° C. Subsequently, plates were washed to remove unbound materials followed by sequential addition of preamplifiers, amplifiers, and label probe. Signals (═gene counts) were measured with a Multimode plate reader Envision. IC50S were calculated by dose-response modelling using appropriate software. For all non-housekeeper genes response equal counts corrected for background and relative expression. For each sample, each test gene signal (background subtracted) was divided by the normalization gene signal (RPL28: background subtracted). Fold changes were calculated by dividing the normalized values for the treated samples by the normalized values for the DMSO treated sample. Fold changes of each target gene were used for the calculation of IC50S.

A further assay concerns MOLM14 cells. Briefly: Proliferation assay (spheroid confluence, 8 days), MOLM14. The conditions noted are these: read-out: spheroid assay_MOLM14 IC50. On the procedure: (§1) The anti-proliferative effect of menin/MLL protein/protein interaction inhibitor test compounds was assessed in human leukemia cell lines. The cell line MOLM14 harbors a MLL translocation and expresses the MLL fusion protein MLL-AF9, respectively, as well as the wildtype protein from the second allele. OCI-AML3 cells that carry the NPM1c gene mutation were also tested. […] KO-52 was used as a control cell line containing two MLL (KMT2A) wildtype alleles in order to exclude compounds that display general cytotoxic effects.
(§2) MOLM14 cells were cultured in RPMI-1640 (Sigma Aldrich) supplemented with 10% heat-inactivated fetal bovine serum (HyClone), 2 mM L-glutamine (Sigma Aldrich) and 50 μg/ml gentamycin (Gibco). KO-52 and OCI-AML3 cell lines were propagated in alpha-MEM (Sigma Aldrich) supplemented with 20% heat-inactivated fetal bovine serum (HyClone), 2 mM L-glutamine (Sigma Aldrich) and 50 μg/ml gentamycin (Gibco).
(§3) In order to assess the anti-proliferative effects, 200 MOLM14 cells, 200 OCI-AML3 cells or 300 KO-52 cells were seeded in 200 μl media per well in 96-well round bottom, ultra-low attachment plates (Costar, catalogue number 7007). Cell seeding numbers were chosen based on growth curves to ensure linear growth throughout the experiment. Test compounds were added at different concentrations and the DMSO content was normalized to 0.3%. Cells were incubated for 8 days at 37° C. and 5% CO2. Spheroid like growth was measured in real-time by live-cell imaging (IncuCyteZOOM, Essenbio, 4×objective) acquiring images at day 8. Confluence (%) as a measure of spheroid size was determined using an integrated analysis tool.
(§4) In order to determine the effect of the test compounds over time, the confluence in each well as a measure of spheroid size, was calculated. Confluence of the highest dose of a reference compound was used as baseline for the LC (Low control) and the confluence of DMSO treated cells was used as 0% cytotoxicity (High Control, HC).
(§5) Absolute IC50 values were calculated as percent change in confluence as follows:
(§6) LC=Low Control: cells treated with e.g. 1 μM of the cytotoxic agent staurosporin, or e.g. cells treated with a high concentration of an alternative reference compound
(§7) HC=High Control: Mean confluence (%) (DMSO treated cells)
(§8) % Effect=100−(100*(Sample−LC)/(HC−LC))
(§9) GraphPad Prism (version 7.00) was used to calculate the IC50. Dose-response equation was used for the plot of % Effect vs Log10 compound concentration with a variable slope and fixing the maximum to 100% and the minimum to 0%.

For another assay, the system named is KO-52 cells. Briefly: Proliferation assay (spheroid confluence, 8 days), KO-52 control cell line. The conditions noted are these: read-out: spheroid assay_KO-52 IC50. As to the method: as §1, §2, §3, §4, §5, §6, §7, §8, §9
Another assay concerns OCI-AML3 cells. The assay is described as follows: Proliferation assay (spheroid confluence, 8 days), OCI-AML3. The conditions noted are these: read-out: spheroid assay_OCI-AML3 IC50. On the procedure:
as §1
MOLM14 cells were cultured in RPMI-1640 (Sigma Aldrich) supplemented with 10% heat-inactivated fetal bovine serum (HyClone), 2 mM L-glutamine (Sigma Aldrich) and 50 μg/ml gentamycin (Gibco). […]
In order to assess the anti-proliferative effects, 200 MOLM14 cells, 200 OCI-AML3 cells or 300 KO-52 cells were seeded in 200 μl media per well in 96-well round bottom, ultra-low attachment plates (Costar, catalogue number 7007). […] Spheroid like growth was measured in real-time by live-cell imaging (IncuCyteZOOM, Essenbio, 4×objective) acquiring images at day 8. Confluence (%) as a measure of spheroid size was determined using an integrated analysis tool.
In order to determine the effect of the test compounds over time, the confluence in each well as a measure of spheroid size, was calculated. […]
Absolute IC50 values were calculated as percent change in confluence as follows: […]

The values below come from patent US20230250096A1, “SUBSTITUTED PHENYL-1H-PYRROLO[2,3-c] PYRIDINE DERIVATIVES” (Janssen Pharmaceutica NV, priority 2021, published 2023).

A value given as a limit tells only on which side of the number the result lay.

As a reminder, the IC50 is the midpoint of a concentration-inhibition curve. Consider `CC(=O)N1CCC(CN2CC[C@@H](Cc3cn(-c4ccc(F)cc4C(=O)N4CCC(O)C4(C)C)c4cncc(C)c34)C2)CC1` (single isomer, unassigned) [Compound 313b], for which the results for the IC50 (in assay [1]; with MEIS1 mRNA expression) were 0.713 nM and 713 nM, respectively.
For `CC(=O)N1CCC([C@@H](CO)N2CC[C@@H](Cc3cn(-c4ccc(F)cc4C(=O)N(C)C(C)C)c4cncc(C)c34)C2)CC1`, the IC50 in assay [1] is 0.387 nM; in the assay on MOLM14 cells, 148 nM; in the assay on KO-52 cells it was greater than 15000 nM; with MEIS1 mRNA expression, 524 nM.
`CCN(C(=O)c1cc(F)ccc1-n1cc(CC2CN(C(C(C)C)[C@H]3C[C@@H](N4CCC(S(C)(=O)=O)CC4)C3)C2)c2c(C)cncc21)C(C)C` (some centres unmarked): the IC50 in assay [1] turned out to be 0.03 nM; in the assay on KO-52 cells, 600 nM; in the assay on MEIS1 mRNA expression it was 16 nM.
With `CC(=O)N1CC(C)C(N2CC(Cc3cn(-c4ccc(F)cc4C(=O)N(C)C(C)C)c4cncc(C)c34)C2)C(C)C1` (centres unmarked), the IC50 in assay [1] amounted to 0.151 nM; with MEIS1 mRNA expression it was 281 nM.
The corresponding values for `Cc1cncc2c1c(CC1CN(CC3CCOCC3)C1)cn2-c1ccc(F)cc1C(=O)N1C[C@H](O)C[C@H]1C` are 0.311 nM and 177 nM.
Regarding `CCN(C(=O)c1cc(F)ccc1-n1cc(CC2CN(C(C(C)C)[C@H]3C[C@H](N4CCC(S(C)(=O)=O)CC4)C3)C2)c2c(C)cncc21)C(C)C` (some centres unmarked), the IC50 was determined as 0.052 nM in assay [1], 3 nM in the assay on MOLM14 cells, 500 nM in the assay on KO-52 cells and 19 nM in the assay with MEIS1 mRNA expression.
For the molecule `Cc1cncc2c1c(C[C@@H]1CCN(CC3CCCOC3)C1)cn2-c1ccc(F)cc1C(=O)N(C)C(C)C` (single isomer, unassigned) [Compound 138], the IC50 in assay [1] is 0.067 nM; in the assay on MEIS1 mRNA expression, 47 nM.
As to `CC(=O)N1CCC(CN2CC[C@@H](Cc3cn(-c4ccc(F)cc4C(=O)N4C[C@H](O)C[C@H]4C)c4cncc(C)c34)C2)CC1`, the IC50 in assay [1] worked out at 0.267 nM; in the assay with MOLM14 cells, 553 nM; with MEIS1 mRNA expression, 642 nM.
As for `Cc1cncc2c1c(CC1CN([C@@H](C(C)C)[C@H]3C[C@@H](N4CCC(S(C)(=O)=O)CC4)C3)C1)cn2-c1ccc(F)cc1C(=O)N(C)C(C)C` (single isomer, unassigned), the values for the IC50 (in assay [1]; in the assay with MEIS1 mRNA expression) were 0.072 nM and 420 nM, respectively.
Taken in the same sequence, the figures for `CC(=O)N1C[C@@H]2CN([C@H]3C[C@@H](C(C)N4CC[C@@H](Cc5cn(-c6ccc(F)cc6C(=O)N(C)C(C)C)c6cncc(C)c56)C4)C3)C[C@H]2C1` (single isomer, unassigned) were 0.042 nM and 162 nM.
With `CC(=O)N1CCC(CN2CC[C@@H](Cc3cn(-c4ccc(F)cc4C(=O)N4CCC(O)C4(C)C)c4cncc(C)c34)C2)CC1` (single isomer, unassigned) [Compound 313a], the values for the IC50 (in assay [1]; in the assay on MEIS1 mRNA expression) were 0.111 nM and 299 nM, respectively.
Take `Cc1cncc2c1c(C[C@@H]1CCN(CC3CCCOC3)C1)cn2-c1ccc(F)cc1C(=O)N(C)C(C)C` (single isomer, unassigned) [Compound 138a]: the IC50 in assay [1] is 0.054 nM; in the assay on MOLM14 cells, 32 nM; in the assay with OCI-AML3 cells it was 72 nM; in the assay on KO-52 cells, 1700 nM; with MEIS1 mRNA expression, 44 nM.
For the molecule `Cc1cncc2c1c(C[C@@H]1CCN(CC3CCCOC3)C1)cn2-c1ccc(F)cc1C(=O)N(C)C(C)C` (single isomer, unassigned) [Compound 138b], the IC50 was determined as 0.109 nM in assay [1]; 86 nM in the assay with MOLM14 cells; 222 nM in the assay on OCI-AML3 cells; 3700 nM with KO-52 cells; 258 nM in the assay with MEIS1 mRNA expression.
